What is called IC50 is the concentration that inhibits the measured activity by half. The term inhibition denotes the drop in the measured response relative to a control, in per cent.

By UniProt entry, the sequences of proteins in these tests, tags left out. Residues count along the entry.
UniProt P22607, 23-806 K650E: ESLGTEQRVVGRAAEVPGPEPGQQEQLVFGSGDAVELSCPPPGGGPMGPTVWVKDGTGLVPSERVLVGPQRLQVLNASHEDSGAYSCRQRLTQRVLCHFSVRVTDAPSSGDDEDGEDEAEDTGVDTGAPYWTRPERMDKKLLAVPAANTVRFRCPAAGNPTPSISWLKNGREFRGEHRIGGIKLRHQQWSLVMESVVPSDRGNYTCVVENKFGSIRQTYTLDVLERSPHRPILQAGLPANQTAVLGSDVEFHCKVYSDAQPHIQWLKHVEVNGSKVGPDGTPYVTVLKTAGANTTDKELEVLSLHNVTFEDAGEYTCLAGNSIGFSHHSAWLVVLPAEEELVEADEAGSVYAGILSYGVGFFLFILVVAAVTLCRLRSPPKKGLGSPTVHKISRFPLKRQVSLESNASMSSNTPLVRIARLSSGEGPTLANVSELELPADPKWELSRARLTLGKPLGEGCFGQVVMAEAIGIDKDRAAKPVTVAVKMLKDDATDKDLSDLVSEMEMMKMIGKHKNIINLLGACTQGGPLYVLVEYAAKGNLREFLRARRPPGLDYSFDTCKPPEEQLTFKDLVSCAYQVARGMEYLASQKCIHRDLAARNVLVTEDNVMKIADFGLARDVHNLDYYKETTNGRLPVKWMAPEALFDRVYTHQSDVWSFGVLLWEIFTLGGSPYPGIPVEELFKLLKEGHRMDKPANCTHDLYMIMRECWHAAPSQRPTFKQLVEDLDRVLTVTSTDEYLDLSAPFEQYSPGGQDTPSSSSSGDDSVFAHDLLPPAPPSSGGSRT

Data on 2 compounds can be found in patent US10183014B2, “Ocular formulations for drug-delivery and protection of the anterior segment of the eye” (PanOptica, Inc., priority 2014, dated 2019).

The target in assay [1] is T1, EGFR (Homo sapiens, UniProt P00533).
T1 construct: endogenous in cells; host or cells: hTCEpi (immortalized corneal epithelial cells)
The experiment in a line: EGFR tyrosine phosphorylation assay in corneal epithelial cells (hTCEpi cells). The assay is classed as cell-based. The conditions noted are these: 1 μM; EGF 10, 50, 100 ng/ml. As for the experimental part: An EGFR tyrosine assay in corneal epithelial cells is run to determine whether higher concentrations of EGF can overcome inhibition of EGFR kinase activity. […] Cells are then harvested and immunoblotted for determination of phosphorylated EGFR and total EGFR concentration which was used to determine receptor activity (IC50).
Six concentrations of a compound of Formula I or II, e.g., 0, 1 μM, 3 μM, 10 μM, 30 μM, 100 μM, or 1 μM AG1478 as a control, were used for each EGF concentration (10, 50, 100 ng/ml). Additional controls run were no compound of Formula I or II or no EGF. All experiments were repeated three times. Cells were then harvested and immunoblotted for determination of phosphorylated EGFR (tyrosine 1068 and tyrosine 1045) and total EGFR.

The target in assay [2] is T1, EGFR. Conditions: cited from earlier work.
The target in the next assay is FGFR-3 (K650E variant) (Homo sapiens, UniProt P22607, K650E). Kind of assay: In vitro inhibition of tyrosine kinases. The assay is classed as biochemical.

Regarding `COc1cc2ncnc(Nc3cccc(Cl)c3)c2cc1OC` [AG1478], the EGFR phosphorylation result on EGFR [1] is listed as “completely blocked”. Further, at EGFR [2], the IC50 is 3 nM.
As to `Cl.NC(=O)c1c(OCc2c(F)cc(Br)cc2F)nsc1NC(=O)NCCCCN1CCCC1` [Compound-I, 3-[(4-bromo-2,6-difluorophenyl)methoxy]-5-[[[[4-(1-pyrrolidinyl)butyl]amino]carbonyl]amino]-4-isothiazolecarboxamide hydrochloride], the inhibition at 0.3 µM at FGFR-3 (K650E variant) (read-out: Mean % Inhibition at 300 nM Compound-I, 300 nM (170.67 ng/mL)) was determined as 104%. At FGFR-3 (K650E variant) (read-out: Mean % Inhibition at 1 μM Compound-I, 1 μM (568.9 ng/mL)), the inhibition at 1 µM stood at 100%.
